# Screens from PubChem BioAssay.
# An excerpt weighted towards active compounds, which were near 0.62% of everything screened.
# uPA surface inh: blocks generation of uPA at the cell surface; cell surface uPA generation assay, qHTS; Potency, µM (series often up to 38.3 µM), hits mostly inhibitors; 330,000 compounds, 0.31% hits; AID 540303; active = well fitted inhibition curve with a large enough effect; inconclusive = small, poorly fitted or top-dose-only effect; inactive = no such curve, though single readings can be large or run the other way; tested in mouse RAW 264.7 cells; note: nearly all actives have a fitted effect of over 55% in size
# PINK1 expr mod: changes PINK1 expression | PINK1 immunofluorescence, high-content cytometry, 24 h | Potency, µM (doses to about 76.6 µM), usual class: activators | 410,000 compounds, 0.2% hits | AID 624263; active = well fitted activation curve with a large enough effect; inconclusive = small, poorly fitted or top-dose-only effect; cell line not stated here; note: nearly all actives have a fitted effect of over 65% in size
#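 Measures PINK1 amount and localization on or inside mitochondria by immunofluorescence. Stable cells get compounds at 5 concentrations for 24 hours before fixation and staining; CCCP controls included.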
# p53 reactivation: restores transcriptional activity of mutant p53 | H1299 p53-A138V BP100-luciferase reporter, luminescence, 24 h | Potency, µM (top dose mostly 92.2 µM), usual class: activators | 320,000 compounds, 0.063% hits; note: nearly all actives have a fitted effect of over 45% in size
#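 H1299 (p53-null), stable ts p53-A138V + BP100-Luc; 1000 cells/well, Opti-MEM/10% FBS; cpd 4 pt, 1:5; 24 h, 37 deg C, 5% CO2; detection reagent 10 min RT; luminescence.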
# Epigenetic reg: derepresses silenced GFP reporter in murine cells. murine LDR cells, GFP reporter derepression, 30 h. Potency, µM (highest dose often 53.9 µM), usual class: activators. 280,000 compounds, 0.2% hits. AID 1865; note: nearly all actives have a fitted effect of over 60% in size
#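 Derepression of a silenced CMV-GFP reporter in murine LDR cells is scored by enumerating GFP-positive cells with a laser-scanning microplate cytometer after 30 hours of treatment at 37 C.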
# IL2 activator: IL-2 activation; IL-2 activation reporter assay, cell-based qHTS; stimulated with anti-CD3/CD4/CD28 beads; in transgenic mouse T cells; activation, % (series mostly up to about 46 µM); 360,000 compounds, 0.065% hits; in the data active = activation above about 50%; inconclusive = mostly about 30% to 49%
#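 EGFP and DsRed fluorescence is measured by plate cytometry in unstimulated transgenic mouse T cells exposed to compound for 60 minutes, then stimulated 18 hours at 37 degrees C with anti-CD3/anti-CD4 beads plus anti-CD28.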
# miR-21 FLuc: miR-21 reporter, rising signal. HeLa miR-21 FLuc reporter, luciferase, 48 h. Potency, µM (titrated, usually from 38.3 µM). 340,000 tested, under 10 active. AID 2288; active = well fitted rising curve with a large enough effect; inconclusive = small, poorly fitted or top-dose-only effect; inactive = no such curve, though single readings can be large or run the other way;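 also: miR-21 action dims this reporter so a rising signal means less miR-21 action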
#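 HeLa cells stably expressing CMV-driven firefly luciferase with a downstream miR-21 binding sequence, endogenously expressing miR-21, were treated with titrations (up to about 40uM final) for 48 hours at 37 degree Celsius. Luciferase luminescence was read after lysis.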
# Numbers stand for hits; 0 = inactive; ? = inconclusive; - = no result given. Unless noted, calls come from the whole dose curve; as a rule, active = well fitted curve in the direction sought with a large enough effect; inconclusive = small, poorly fitted or top-dose-only effect, or another doubt; inactive = no such curve, though single readings can be large; an effect the other way counts as inactive or inconclusive.
SMILES,uPA surface inh,PINK1 expr mod,p53 reactivation,Epigenetic reg,IL2 activator,miR-21 FLuc
Cc1ccc(-n2nnc(-c3nccs3)n2)cc1,2.2µM,0,0,0,0,0
Clc1cccc(CSc2nc3ccncc3[nH]2)c1,4.5µM,0,?,0,0,0
Cc1cnc(SCc2ccccn2)nc1C1CCCN(C(=O)c2cccc(-c3cccc(F)c3)c2)C1 (stereo not drawn),-,0,-,-,-,-
COc1cccc(-c2ccc(O)c(CNC(c3ccccc3)c3ccc(Cl)cc3)c2)n1 (stereo not drawn),-,0,-,-,-,-
CC(=O)NN1C(=O)/C(=C2/Sc3ccccc3N2C)SC1=S,0,0,0,-,0,0
CCN1/C(=C2/SC(=S)N(NC(C)=O)C2=O)Sc2ccccc21,0,22µM,0,-,?,0
CCN1/C(=C2\SC(=S)N(Cc3ccccc3)C2=O)Sc2ccccc21,0,?,0,13µM,0,0
Nc1nc(N)c2c(OCc3ccc(C(F)(F)F)cc3)cccc2n1,-,0,-,-,-,-
COc1ccc2c(c1)CCc1cnc(-n3ncc(C(=O)N4CCN(CCO)CC4)c3C3CC3)nc1-2,-,0,-,-,-,-
Cc1ccccc1-c1ccc(CN2CCc3nnc(CNC(=O)c4ccccn4)n3CC2)cc1,-,0,-,-,-,-
CCOC(=O)/C(C(N)=NCCO)=C(/O)c1ccccc1,-,0,0,0,0,0
CCOC(=O)/C(C(N)=NCCCO)=C(/O)c1ccccc1,0,14µM,0,0,0,0
O=C(N/N=C/c1cc(Cl)cc(Cl)c1O)c1ccncc1,3.2µM,0,?,0,0,0
O=C(N/N=C/c1ccc(Cl)cc1Cl)c1ccncc1,0,0,0,-,0,0
COC(=O)c1c(-c2ccccc2Cl)noc1/C=C/N(C)C,0,0,0,22µM,0,0
O=C(/C=C/c1ccc(F)cc1)NCC1Cc2cccc(-c3ncccn3)c2O1 (stereo not drawn),-,0,-,-,-,-
Cc1cc(C)nc(NN2C(=O)/C(=C/c3ccccc3)SC2=S)n1,0,10µM,0,0,0,0
O=C1/C(=C/c2ccncc2)SC(=S)N1Nc1ccccc1,0,0,0,0,0,0
S=C(Nc1ccccc1)Nc1nccs1,0,0,?,13µM,0,0
CCS(=O)(=O)N1N=C(c2cccc(NS(C)(=O)=O)c2)CC1c1ccc(C)cc1 (stereo not drawn),0,?,0,22µM,0,0
CCSc1nsc(NC(=O)Nc2ccccc2Cl)n1,0,?,-,-,0,-
CCSc1nsc(NC(=O)Nc2ccc(F)cc2F)n1,?,22µM,?,-,0,0
COc1ccc(C(C#N)=Cc2ccccc2OC)cc1,-,0,-,-,0,-
COc1cc(N2CCCC2)c(OC)cc1/C=C(/C#N)c1ccc(Br)cc1,0,0,0,3.2µM,0,0
COc1cc(N2CCCC2)c(OC)cc1/C=C(/C#N)c1ccc(F)cc1,0,0,?,14µM,0,0
SMILES,uPA surface inh,PINK1 expr mod,p53 reactivation,Epigenetic reg,IL2 activator,miR-21 FLuc
Cc1cc2ncc(-c3ccc(Cl)cc3)c(N)n2n1,3.5µM,0,0,0,0,0
Nc1c(-c2ccccc2)cnc2cc(-c3ccccc3)nn12,?,0,?,0,0,0
O=C(NCCc1ccccn1)C1CC12CCN(C(=O)c1cccc(C(F)(F)F)c1)CC2 (stereo not drawn),-,0,-,-,-,-
CC(c1ccccc1)N1CCN(C(=O)CCl)CC1 (stereo not drawn),8.9µM,0,0,0,0,?
Cc1csc(NC(=O)c2ccccc2O)n1,0,0,0,0,0,0
CC(C)(C)c1csc(NC(=O)c2ccccc2O)n1,0,28µM,0,-,0,0
CCOc1c(OC(C)=O)ccc(/C=C/c2ccc3cccc(OC(C)=O)c3n2)c1[N+](=O)[O-],-,0,?,0,0,0
C=CCN1C(=O)/C(=C/c2ccc(OC(C)=O)c(OCC)c2[N+](=O)[O-])SC1=S,0,4.5µM,0,0,0,0
CCCCCc1c(CC)ncn1CCc1ccccc1OC,-,32µM,-,-,0,-
CCCCCc1c(-c2ccccc2OC)ncn1CCc1ccccc1OC,-,?,-,-,0,-
CCCCNc1ccc2c3c(cccc13)C(=O)N(CCCC)C2=O,0,?,0,3.2µM,0,0
CN(C)CCCN1C(=O)c2cccc3c(Br)ccc(c23)C1=O,7.9µM,0,0,?,0,0
COc1ccc(N=Cc2c(OC)ccc3ccccc23)cc1,0,0,-,-,0,-
